For one molecule, Ki results are on record in ChEMBL document CHEMBL2321726, “Identification of selective inhibitors for human neuraminidase isoenzymes using C4,C7-modified 2-deoxy-2,3-didehydro-N-acetylneuraminic acid (DANA) analogues” (J Med Chem, 2013).

For the test, the target named is T1, Sialidase-4 (Homo sapiens, UniProt Q8WWR8).
T1 sequence (Q8WWR8 whole entry): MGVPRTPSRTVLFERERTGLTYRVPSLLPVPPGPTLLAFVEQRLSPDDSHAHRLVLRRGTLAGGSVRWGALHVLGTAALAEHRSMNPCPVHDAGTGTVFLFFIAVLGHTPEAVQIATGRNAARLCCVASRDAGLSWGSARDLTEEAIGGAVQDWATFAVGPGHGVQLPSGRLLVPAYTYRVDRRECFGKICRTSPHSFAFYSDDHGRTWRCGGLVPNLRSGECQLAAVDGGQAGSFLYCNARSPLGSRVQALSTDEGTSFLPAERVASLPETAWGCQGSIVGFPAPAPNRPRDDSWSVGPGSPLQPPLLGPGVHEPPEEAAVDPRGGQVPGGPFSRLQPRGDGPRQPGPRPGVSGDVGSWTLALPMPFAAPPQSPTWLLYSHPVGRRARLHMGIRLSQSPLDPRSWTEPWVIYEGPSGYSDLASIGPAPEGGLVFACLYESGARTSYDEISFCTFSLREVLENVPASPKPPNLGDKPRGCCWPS
As to the kind of experiment: Inhibition of human neuraminidase 4 using 4MU-NANA as substrate measured for every 30 seconds for 60 mins by fluorescence assay.

Molecule `CC(=O)N[C@H]1[C@H]([C@H](O)[C@H](O)CO)OC(C(=O)O)=C[C@@H]1O` [NEU5AC2EN] gave a Ki of 1000 nM.

As usually defined, the Ki is the equilibrium dissociation constant of an inhibitor or competing ligand from its target. The low end stands for a stronger hold on the target, the high end for a looser hold on the target.
